Data: patent US20240360179A1, “STAPLED PEPTIDES AND METHODS THEREOF” (FOG PHARMACEUTICALS, INC., priority 2021, published 2024)

Chains of the proteins cited; added tags and fusions are not shown.
UniProt P35222, whole entry: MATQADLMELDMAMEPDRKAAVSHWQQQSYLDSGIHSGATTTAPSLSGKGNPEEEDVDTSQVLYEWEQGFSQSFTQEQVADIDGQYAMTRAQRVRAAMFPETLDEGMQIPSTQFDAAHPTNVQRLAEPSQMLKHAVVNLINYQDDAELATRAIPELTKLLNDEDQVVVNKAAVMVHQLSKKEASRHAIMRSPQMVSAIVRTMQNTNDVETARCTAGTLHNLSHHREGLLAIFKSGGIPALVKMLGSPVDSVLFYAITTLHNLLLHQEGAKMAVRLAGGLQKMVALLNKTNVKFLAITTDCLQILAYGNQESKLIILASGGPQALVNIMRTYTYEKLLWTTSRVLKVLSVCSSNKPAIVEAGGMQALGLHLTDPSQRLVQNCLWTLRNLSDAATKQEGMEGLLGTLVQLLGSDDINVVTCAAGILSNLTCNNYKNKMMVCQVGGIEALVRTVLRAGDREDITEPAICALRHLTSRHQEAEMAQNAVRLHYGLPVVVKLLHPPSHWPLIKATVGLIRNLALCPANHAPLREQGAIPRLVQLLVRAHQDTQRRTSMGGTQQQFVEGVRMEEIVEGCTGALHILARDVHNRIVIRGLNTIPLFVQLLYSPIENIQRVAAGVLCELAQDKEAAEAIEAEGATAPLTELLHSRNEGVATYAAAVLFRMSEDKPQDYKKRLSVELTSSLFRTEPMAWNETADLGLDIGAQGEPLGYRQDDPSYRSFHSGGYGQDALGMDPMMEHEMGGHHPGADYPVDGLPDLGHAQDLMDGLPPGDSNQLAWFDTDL

Biological target: T1, full-length B-Catenin (Uniprot ID P35222) (Homo sapiens, UniProt P35222)
T1 construct: 10 nM full-length B-Catenin (Uniprot ID P35222)
Assay: biochemical
Format: binding
Conditions: beta-Catenin FP IC50 (nM), competition fluorescence polarization

| SMILES | IC50 [nM] |
| --- | --- |
| CC(=O)N1CCC[C@]12CC=CCCCC1(CCCC=CCCCOC(=O)N3CC[C@@]4(C3)NC(=O)[C@H](CCCCNC(=O)CC[C@@H](C(=O)N[C@@H](CCC(=O)O)C(=O)N[C@@H](C)C(=O)O)NC(=O)[C@H](Cc3csc5ccccc35)NC(=O)[C@H](Cc3ccsc3)NC4=O)NC(=O)[C@H](Cc3ccccc3)NC(=O)[C@H](C)NC(=O)C(C)(C)NC(=O)[C@H](Cc3cccc(C(=O)O)c3)NC(=O)[C@H](CC(=O)O)NC1=O)NC(=O)[C@H](CC(C)(C)C)NC(=O)[C@H](CC(=O)O)NC2=O (relative stereo) [I-348, Ac-PL3-Asp-Npg-B5-Asp-3COOHF-Aib-Ala-Phe-Lys*3-PyrS2-3Thi-BztA-GlnR*3-Glu-Ala-OH] | < 50 |
| CC(=O)N1CCC[C@]12CC=CCCCC1(CCCC=CCCCOC(=O)N3CC[C@@]4(C3)NC(=O)[C@H](CCCCNC(=O)CC[C@@H](C(=O)N[C@@H](C)C(N)=O)NC(=O)[C@H](Cc3csc5ccccc35)NC(=O)[C@H](Cc3ccsc3)NC4=O)NC(=O)[C@H](Cc3ccccc3)NC(=O)[C@H](C)NC(=O)C(C)(C)NC(=O)[C@H](Cc3cccc(C(=O)O)c3)NC(=O)[C@H](CC(=O)O)NC1=O)NC(=O)[C@H](CC(C)(C)C)NC(=O)[C@H]([C@@H](C)O)NC2=O (relative stereo) [I-161, Ac-PL3-Thr-Npg-B5-Asp-3COOHF-Aib-Ala-Phe-Lys*3-PyrS2-3Thi-BztA-GlnR*3-Ala-NH2] | 200 to 750 |
| CC(=O)N1CCC[C@]12CC=CCCCC1(CCCC=CCCCOC(=O)N3CC[C@@]4(C3)NC(=O)[C@H](CCCCNC(=O)CC[C@@H](C(=O)N[C@@H](C)C(N)=O)NC(=O)[C@H](Cc3csc5ccccc35)NC(=O)[C@H](Cc3ccsc3)NC4=O)NC(=O)[C@H](Cc3ccccc3)NC(=O)[C@H](C)NC(=O)C(C)(C)NC(=O)[C@H](Cc3cccc(C(=O)O)c3)NC(=O)[C@H](CC(=O)O)NC1=O)NC(=O)C(C)(C)NC(=O)[C@H](CC(=O)O)NC2=O (relative stereo) [I-308, Ac-PL3-Asp-Aib-B5-Asp-3COOHF-Aib-Ala-Phe-Lys*3-PyrS2-3Thi-BztA-GlnR*3-Ala-NH2] | < 50 |
| CC(=O)N1CCC[C@]12CC=CCCCC1(CCCC=CCCCOC(=O)N3CC[C@@]4(C3)NC(=O)[C@H](CCCCNC(=O)CC[C@@H](C(=O)N[C@@H](C)C(N)=O)NC(=O)[C@H](Cc3csc5ccccc35)NC(=O)[C@H](Cc3ccccc3C(F)(F)F)NC4=O)NC(=O)[C@H](Cc3ccccc3)NC(=O)[C@H](C)NC(=O)C(C)(C)NC(=O)[C@H](Cc3cccc(C(=O)O)c3)NC(=O)[C@H](CC(=O)O)NC1=O)NC(=O)[C@H](CC(C)(C)C)NC(=O)[C@@](C)(CC(=O)O)NC2=O (relative stereo) [I-290, Ac-PL3-aMeDAsp-Npg-B5-Asp-3COOHF-Aib-Ala-Phe-Lys*3-PyrS2-2F3MeF-BztA-GlnR*3-Ala-NH2] | 50 to 200 |
| CC(=O)N1CCC[C@]12CC=CCCCC1(CCCC=CCCCOC(=O)N3CC[C@@]4(C3)NC(=O)[C@H](CCCC(=O)N3CCC(CC3)C[C@@H](C(=O)N[C@@H](C)C(N)=O)NC(=O)[C@H](Cc3csc5ccccc35)NC(=O)[C@H](Cc3ccccc3C(F)(F)F)NC4=O)NC(=O)[C@H](Cc3ccccc3)NC(=O)[C@H](C)NC(=O)[C@H](C)NC(=O)[C@H](Cc3cccc(C(=O)O)c3)NC(=O)[C@H](CC(=O)O)NC1=O)NC(=O)[C@H](CC(C)(C)C)NC(=O)[C@H](CC(=O)O)NC2=O (relative stereo) [I-261, Ac-PL3-Asp-Npg-B5-Asp-3COOHF-Ala-Ala-Phe-hGlnR*3-PyrS2-2F3MeF-BztA-4PipA*3-Ala-NH2] | < 50 |
| CC(=O)N1CCC[C@]12CC=CCCCC1(CCCC=CCCCOC(=O)N3CC[C@@]4(C3)NC(=O)[C@H](CCCCNC(=O)CC[C@@H](C(=O)N[C@@H](C)C(N)=O)NC(=O)[C@H](Cc3csc5ccccc35)NC(=O)[C@H](Cc3ccsc3)NC4=O)NC(=O)[C@H]([C@@H](C)O)NC(=O)[C@H](C)NC(=O)C(C)(C)NC(=O)[C@H](Cc3cccc(C(=O)O)c3)NC(=O)[C@H](CC(=O)O)NC1=O)NC(=O)[C@H](CC(C)(C)C)NC(=O)[C@H](CC(=O)O)NC2=O (relative stereo) [I-370, Ac-PL3-Asp-Npg-B5-Asp-3COOHF-Aib-Ala-Thr-Lys*3-PyrS2-3Thi-BztA-GlnR*3-Ala-NH2] | > 1000 |
| CC(=O)N1CCC[C@]12CC=CCCCC1(CCCC=CCCCOC(=O)N3CC[C@@]4(C3)NC(=O)[C@H](CCCCNC(=O)CC[C@@H](C(=O)N[C@@H](C)C(N)=O)NC(=O)[C@H](Cc3csc5ccccc35)NC(=O)[C@H](Cc3ccsc3)NC4=O)NC(=O)[C@H](CC(N)=O)NC(=O)[C@H](C)NC(=O)C(C)(C)NC(=O)[C@H](Cc3cccc(C(=O)O)c3)NC(=O)[C@H](CC(=O)O)NC1=O)NC(=O)[C@H](CC(C)(C)C)NC(=O)[C@H](CC(=O)O)NC2=O (relative stereo) [I-373, Ac-PL3-Asp-Npg-B5-Asp-3COOHF-Aib-Ala-Asn-Lys*3-PyrS2-3Thi-BztA-GlnR*3-Ala-NH2] | > 1000 |
| CC(=O)N1CCC[C@]12CC=CCCCC1(CCCC=CCCCOC(=O)N3CC[C@@]4(C3)NC(=O)[C@H](CCCCNC(=O)CC[C@@H](C(=O)N[C@@H](C)C(N)=O)NC(=O)[C@H](Cc3csc5ccccc35)NC(=O)[C@H](Cc3ccccc3C(F)(F)F)NC4=O)NC(=O)[C@H](Cc3ccccc3)NC(=O)[C@H](C)NC(=O)C(C)(C)NC(=O)[C@@H](CCC(=O)O)NC(=O)[C@H](CC(=O)O)NC1=O)NC(=O)[C@H](CC(C)(C)C)NC(=O)[C@H](CC(=O)O)NC2=O (relative stereo) [I-215, Ac-PL3-Asp-Npg-B5-Asp-dGlu-Aib-Ala-Phe-Lys*3-PyrS2-2F3MeF-BztA-GlnR*3-Ala-NH2] | < 50 |

Other lines, results leading:

| IC50 [nM] | SMILES |
| --- | --- |
| 50 to 200 | CC(=O)N1CCC[C@]12CC=CCCCC1(CCCC=CCCCOC(=O)N3CC[C@@]4(C3)NC(=O)[C@H](CCCCNC(=O)CC[C@@H](C(=O)N[C@@H](C)C(N)=O)NC(=O)[C@H](Cc3csc5ccccc35)NC(=O)[C@H](C(C)C)NC4=O)NC(=O)[C@H](Cc3ccccc3)NC(=O)[C@H](C)NC(=O)C(C)(C)NC(=O)[C@H](Cc3cccc(C(=O)O)c3)NC(=O)[C@H](CC(=O)O)NC1=O)NC(=O)[C@H](CC(C)(C)C)NC(=O)[C@H](CC(=O)O)NC2=O (relative stereo) [I-535, Ac-PL3-Asp-Npg-B5-Asp-3COOHF-Aib-Ala-Phe-Lys*3-PyrS2-Val-BztA-GlnR*3-Ala-NH2] |
| 50 to 200 | CC(=O)N1CCC[C@]12CC=CCCCC1(CCCC=CCCCOC(=O)N3CC[C@@]4(C3)NC(=O)[C@H](CCCCNC(=O)CC[C@@H](C(=O)N[C@@H](C)C(N)=O)NC(=O)[C@H](Cc3csc5ccccc35)NC(=O)[C@H](Cc3ccsc3)NC4=O)NC(=O)[C@H](Cc3ccccc3)NC(=O)[C@H](C)NC(=O)C(C)(C)NC(=O)[C@H](Cc3cccc(C(=O)O)c3)NC(=O)[C@H](CC(=O)O)NC1=O)NC(=O)[C@H](CC(C)(C)C)NC(=O)[C@H](CCC(=O)O)NC2=O (single isomer, unassigned) [I-543, Ac-PL3-Glu-Npg-B5-Asp-3COOHF-Aib-Ala-Phe-Lys*3-PyrS2-3Thi-BztA-GlnR*3-Ala-NH2] |
| < 50 | CC(=O)N1CCC[C@]12CC=CCCCC1(CCCC=CCCCOC(=O)N3CC[C@@]4(C3)NC(=O)[C@H](CCCCNC(=O)CC[C@@H](C(=O)N[C@@H](C)C(N)=O)NC(=O)[C@H](Cc3csc5ccccc35)NC(=O)[C@H](Cc3ccsc3)NC4=O)NC(=O)[C@H](Cc3ccccc3)NC(=O)[C@H](C)NC(=O)C3(CCNCC3)NC(=O)[C@H](Cc3cccc(C(=O)O)c3)NC(=O)[C@H](CC(=O)O)NC1=O)NC(=O)[C@H](CC(C)(C)C)NC(=O)[C@H](CC(=O)O)NC2=O (single isomer, unassigned) [I-384, Ac-PL3-Asp-Npg-B5-Asp-3COOHF-Acp-Ala-Phe-Lys*3-PyrS2-3Thi-BztA-GlnR*3-Ala-NH2] |
| < 50 | CC(=O)N1CCC[C@]12CC=CCCCC1(CCCC=CCCCOC(=O)N3CC[C@@]4(C3)NC(=O)[C@H](CCCCNC(=O)CC[C@@H](C(=O)N[C@@H](C)C(N)=O)NC(=O)[C@H](Cc3csc5ccccc35)NC(=O)[C@H](Cc3ccsc3)NC4=O)NC(=O)[C@H](Cc3ccccc3)NC(=O)[C@H](CCc3ccc(O)cc3)NC(=O)C(C)(C)NC(=O)[C@H](Cc3cccc(C(=O)O)c3)NC(=O)[C@H](CC(=O)O)NC1=O)NC(=O)[C@H](CC(C)(C)C)NC(=O)[C@H](CC(=O)O)NC2=O (relative stereo) [I-533, Ac-PL3-Asp-Npg-B5-Asp-3COOHF-Aib-hTyr-Phe-Lys*3-PyrS2-3Thi-BztA-GlnR*3-Ala-NH2] |
| < 50 | CC(=O)N1CCC[C@]12CC=CCCCC1(CCCC=CCCCOC(=O)N3CC[C@@]4(C3)NC(=O)[C@H](CCCN(C)C(=O)CCC[C@@H](C(=O)N[C@@H](C)C(N)=O)NC(=O)[C@H](Cc3csc5ccccc35)NC(=O)[C@H](Cc3ccsc3)NC4=O)NC(=O)[C@H](Cc3ccccc3)NC(=O)[C@H](C)NC(=O)C(C)(C)NC(=O)[C@H](Cc3cccc(C(=O)O)c3)NC(=O)[C@H](CC(=O)O)NC1=O)NC(=O)[C@H](CC(C)(C)C)NC(=O)[C@H](CC(=O)O)NC2=O (relative stereo) [I-561, Ac-PL3-Asp-Npg-B5-Asp-3COOHF-Aib-Ala-Phe-NMeOrn*3-PyrS2-3Thi-BztA-hGlnR*3-Ala-NH2] |
| 200 to 750 | CC(=O)N1CCC[C@]12CC=CCCCC1(CCCC=CCCCOC(=O)N3CC[C@@]4(C3)NC(=O)[C@H](CCCCNC(=O)CC[C@@H](C(=O)N[C@@H](C)C(N)=O)NC(=O)[C@H](Cc3csc5ccccc35)NC(=O)[C@H](Cc3ccsc3)NC4=O)NC(=O)[C@H](Cc3ccccc3)NC(=O)[C@H](CCCC(=O)O)NC(=O)C(C)(C)NC(=O)[C@H](Cc3cccc(C(=O)O)c3)NC(=O)[C@H]([C@H](C)O)NC1=O)NC(=O)[C@H](CC(C)(C)C)NC(=O)[C@H](CC(=O)O)NC2=O (relative stereo) [I-526, Ac-PL3-Asp-Npg-B5-aThr-3COOHF-Aib-Aad-Phe-Lys*3-PyrS2-3Thi-BztA-GlnR*3-Ala-NH2] |
| < 50 | CC(=O)N1CCC[C@]12CC=CCCCC1(CCCC=CCCCOC(=O)N3CC[C@@]4(C3)NC(=O)[C@H](CCCCNC(=O)CC[C@@H](C(=O)N[C@@H](C)C(N)=O)NC(=O)[C@H](Cc3csc5ccccc35)NC(=O)[C@H](Cc3ccsc3)NC4=O)NC(=O)[C@H](Cc3cccc(Cl)c3)NC(=O)[C@H](C)NC(=O)C(C)(C)NC(=O)[C@H](Cc3cccc(C(=O)O)c3)NC(=O)[C@H](CC(=O)O)NC1=O)NC(=O)[C@H](CC(C)(C)C)NC(=O)[C@H](CC(=O)O)NC2=O (single isomer, unassigned) [I-576, Ac-PL3-Asp-Npg-B5-Asp-3COOHF-Aib-Ala-3ClF-Lys*3-PyrS2-3Thi-BztA-GlnR*3-Ala-NH2] |
